Source: ChEMBL document CHEMBL5212743, “Selectivity Literature for EUbOPEN Chemogenomics Library wave 3” (2023)

Protein sequences, listed by entry. Tags and fused reporters are not part of them. Lines headed by an entry give the natural chain unless they say otherwise; changes in a name come on top.
UniProt P08253: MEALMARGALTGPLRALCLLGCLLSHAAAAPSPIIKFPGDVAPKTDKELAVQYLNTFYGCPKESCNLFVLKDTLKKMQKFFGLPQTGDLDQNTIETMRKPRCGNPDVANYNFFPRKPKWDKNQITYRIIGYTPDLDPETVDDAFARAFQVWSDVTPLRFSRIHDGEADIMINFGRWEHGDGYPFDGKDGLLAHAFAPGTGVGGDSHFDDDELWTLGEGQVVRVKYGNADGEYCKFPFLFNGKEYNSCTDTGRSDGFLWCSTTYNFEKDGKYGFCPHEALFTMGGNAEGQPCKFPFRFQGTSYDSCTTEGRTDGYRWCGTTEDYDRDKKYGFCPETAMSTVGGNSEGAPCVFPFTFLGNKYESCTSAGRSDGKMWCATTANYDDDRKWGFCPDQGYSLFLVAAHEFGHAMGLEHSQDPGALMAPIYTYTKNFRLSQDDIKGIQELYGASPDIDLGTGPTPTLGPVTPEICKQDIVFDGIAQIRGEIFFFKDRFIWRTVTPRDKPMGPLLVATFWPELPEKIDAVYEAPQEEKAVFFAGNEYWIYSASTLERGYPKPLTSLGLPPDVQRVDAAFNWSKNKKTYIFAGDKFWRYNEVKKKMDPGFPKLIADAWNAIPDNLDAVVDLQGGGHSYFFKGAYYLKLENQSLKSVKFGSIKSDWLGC

Target: 72 kDa type IV collagenase (Homo sapiens, UniProt P08253)

- pIC50: < 4.74
Structure (SMILES): CCOC(=O)c1cc2cc(-c3cc(C(=O)NCc4ccc(C(=O)O)cc4)nn3C)ccc2[nH]1 [BI 4394]

pIC50: −log10 of the molar value.
